In US5458889A (priority 1986, dated 1995):

Test system: Streptococcus Faecalis
Assay type: cell-based

F [fluoride anion F^-]
effect on the unfavourable effect of the serous proteins: advantageously decreases the unfavourable effect of the serous proteins
